# Yeast mating assay 1: variants of the scFv Ab-14

Target peptide (SARS-CoV-2 spike, HR2 region): PDVDLGDISGINAS

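Variants in AAYL49 differ from the parent at up to three CDR positions; double and triple changes were sampled at random. AlphaSeq pools MATa yeast showing the antibodies with MATalpha yeast showing the peptide. The frequency of each diploid, read from paired DNA barcodes, reflects how well the two displayed proteins bind. The ratio of observed to expected reads was calibrated, replicate by replicate, on BCL2-family standards whose Kd was known from biolayer interferometry. Each pool was mated in three replicate cultures.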

Each scFv is VH, three GGGGS repeats, VL, as in the parent Ab-14, and differs from it in the CDRs of the heavy chain only.
VH: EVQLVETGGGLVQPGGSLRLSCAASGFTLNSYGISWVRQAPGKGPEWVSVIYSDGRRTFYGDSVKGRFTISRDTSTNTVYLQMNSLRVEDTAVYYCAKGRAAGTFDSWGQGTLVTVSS
VL: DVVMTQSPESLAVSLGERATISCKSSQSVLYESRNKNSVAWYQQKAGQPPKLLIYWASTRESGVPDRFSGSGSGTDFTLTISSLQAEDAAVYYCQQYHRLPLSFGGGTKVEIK

Each variant is given by its three heavy chain CDRs, as the data file delimits them; those of the parent are GFTLNSYGIS, VIYSDGRRTFYGDSVK, GRAAGTFDS. Numbers give log10(Kd / nM), so 0 is 1 nM and 3 is 1 µM. Smaller is tighter. "n.d." marks a missing value. The strain was present, yet no cells mated with the target were sequenced in that replicate, which points to weak or no binding. Empty control strains, which show no peptide, gave a signal in 15% of pairings with library AAYL49; the median was 4.06 and 95% of these signals were weaker than 2.83. No background was subtracted. Also given: how often the same scFv was detected with the empty control strains, with their mean in brackets.

CDR-H1	CDR-H2	CDR-H3	log10 Kd (nM) by replicate	empty controls
GFGLFVYGIS	VIYSDGRRTFYGDSVK	GRAAGTFDS	4.04 / n.d. / 3.15	2 of 9 (3.81)
GFTLLSYGTS	VIYSDGDRTFYGDSVK	GRAAGTFDS	n.d. / n.d. / 4.44	1 of 9 (3.52)
GFTLNSYGIS	GGYSWGRRTFYGDSVK	GRAAGTFDS	4.63 / n.d. / 3.21	1 of 9 (4.40)
GFTLYSYGIS	VIYSDGRCTFYGDSVK	GRAAGTFDD	n.d. / n.d. / n.d.	0 of 9
GFTLQSYGIF	VIYSDGRRTFYGDSVK	GRAAGTFDW	n.d. / n.d. / n.d.	5 of 9 (4.25)
GFTNNSYGIS	VIYMDGRRTFYGDSVK	GRADGTFDS	3.43 / 4.46 / n.d.	2 of 9 (4.08)
GFTKNTYGIS	VIYSDGRRTWYGDSVK	GRAAGTFDS	n.d. / 4.28 / 4.42	2 of 9 (4.66)
GFTLNSYGIS	VIYSDGRRTFYGFSVK	GRAAGTFDQ	n.d. / n.d. / n.d.	0 of 9
GFTLNQYGIS	VIYSDGRRTFYGDSGK	GRAAGPFDS	n.d. / n.d. / 3.23	0 of 9
GFTLNSCGIS	VIYSDGRRTWYGDSVK	QRAAGTFDS	n.d. / 4.84 / n.d.	4 of 9 (4.37)
GFTLNSYGIS	WIYSDGRRTFKGDSVK	GRANGTFDS	n.d. / n.d. / n.d.	0 of 9
GFTLNSYGWS	VISSDCRRTFYGDSVK	GRAAGTFDS	n.d. / n.d. / n.d.	1 of 9 (3.18)
GFTLNSEGIS	VIYSDGVRTFYGDSVK	GRACGTFDS	n.d. / n.d. / n.d.	4 of 9 (3.65)
GFTPNSYGIS	VIYSMGRRTFYGSSVK	GRAAGTFDS	n.d. / n.d. / n.d.	0 of 9
GFALNSYGIS	VIYSDGRRTFYGDSVK	GCAAGTFDS	n.d. / n.d. / n.d.	1 of 9 (2.94)
GFTLNSYGQY	VIYSDGRRTFYGDSVK	GRAAGLFDS	n.d. / 3.62 / n.d.	2 of 9 (4.62)
QFTLNQYGIS	VIYSQGRRTFYGDSVK	GRAAGTFDS	n.d. / n.d. / n.d.	2 of 9 (3.98)
GFTLNSYGIS	VIESDGRRTFYGDSFK	GRAAGTFMS	n.d. / 3.68 / n.d.	3 of 9 (3.84)
GFTLNSYPIS	VIYSDGRRTFYGDSVK	GREAGTFDF	n.d. / n.d. / n.d.	1 of 9 (3.54)
GFTLNSYGIE	VIYSDGRRTFCGDSVK	GRAAGTFDN	n.d. / n.d. / n.d.	1 of 9 (4.04)
GFTLNKYGIV	VIYSDGRRTFYGDSVK	GRNAGTFDS	n.d. / n.d. / n.d.	1 of 9 (3.59)
GFTLNSYGIR	VIASDGRRTFYGDCVK	GRAAGTFDS	n.d. / 3.58 / n.d.	2 of 9 (3.55)
WFTLNSYGWS	VIYSDGRRTFYGDSVI	GRAAGTFDS	n.d. / n.d. / n.d.	0 of 9
GITLNSYGIS	VIYSDGRRTFYGDSVY	GRAAGGFDS	n.d. / n.d. / n.d.	1 of 9 (4.83)
GFTLNSYGIG	VIYSDGRRTMYGDSVW	GRAAGTFDS	n.d. / 4.44 / n.d.	2 of 9 (3.10)
NFTLNSYGIS	VIYSDGRRTFYGDSVD	GRAAGDFDS	n.d. / n.d. / n.d.	0 of 9
GFTLNSHGIS	VIYSDGRRTFYGERVK	GRAAGTFDS	n.d. / 2.85 / 2.71	2 of 9 (2.49)
GFTLNSGGIK	VIYSDGRRTFYGDSVK	WRAAGTFDS	n.d. / n.d. / n.d.	1 of 9 (3.01)
GFTLNSYGIS	VIYTDGRRTFYTDSVK	IRAAGTFDS	6.00 / 3.18 / n.d.	3 of 9 (3.90)
GFTLNSYGIS	VIYSDGRRTFYGDMWK	GRAAGTSDS	n.d. / n.d. / n.d.	0 of 9
GLTLNSYGII	VIYSDGRRTFYGDSVK	GRAALTFDS	n.d. / n.d. / n.d.	1 of 9 (3.98)
GFTLNSYGIS	VIRSDGRRTFYGDSVK	GRAAGDFDS	n.d. / n.d. / 6.23	4 of 9 (4.14)
GFTLNAYGIS	VIDSDGRRKFYGDSVK	GRAAGTFDS	n.d. / 3.95 / n.d.	0 of 9
GFYLCSYGIS	VIYSDGRRTFYGDSVK	GRAACTFDS	5.25 / 3.36 / n.d.	3 of 9 (3.70)
GFTLNSYGIS	VIYSDGRRTFYGDSGK	GRVAGTFDI	n.d. / n.d. / n.d.	1 of 9 (2.98)
GFTLNSLGIS	VLYSDGRRTFYGDSVK	GRAAGTFWS	n.d. / n.d. / n.d.	0 of 9
GFTLNSYGKS	VIYSDYRRTFYGDSVK	GRAPGTFDS	4.07 / n.d. / n.d.	0 of 9
GFTLNSYGIS	VIASDVWRTFYGDSVK	GRAAGTFDS	n.d. / n.d. / n.d.	3 of 9 (3.05)
GFTLNSYGIS	VIYNDGRRTAIGDSVK	GRAAGTFDS	n.d. / n.d. / n.d.	2 of 9 (3.63)
GFTLNSYGIS	CIYSDGRRTFYPDSVK	GRMAGTFDS	n.d. / n.d. / n.d.	0 of 9
SFTLNSYGIS	VIYSDGRRPFYGDSVK	GRSAGTFDS	n.d. / 2.84 / n.d.	0 of 9
GFTLNSYGIS	VIYSDGNRTDYGDSVK	GPAAGTFDS	n.d. / n.d. / n.d.	3 of 9 (3.50)
EFTLNSYGIS	NIYSDGRRTFVGDSVK	GRAAGTFDS	n.d. / n.d. / n.d.	2 of 9 (4.00)
WFTLNSYGIS	VIYSDGMRTFYGDSVK	GRQAGTFDS	1.98 / 1.84 / 3.01	0 of 9
GFTLNTYGIS	VIGSDGFRTFYGDSVK	GRAAGTFDS	n.d. / n.d. / n.d.	2 of 9 (3.58)

For reference, 4 entries of the list once more:

CDR-H1	CDR-H2	CDR-H3	log10 Kd (nM) by replicate	empty controls
GFTLNSYGWS	VISSDCRRTFYGDSVK	GRAAGTFDS	n.d. / n.d. / n.d.	1 of 9 (3.18)
GFTLNSYGIS	VIYTDGRRTFYTDSVK	IRAAGTFDS	6.00 / 3.18 / n.d.	3 of 9 (3.90)
GFTLNSYGIS	VIYNDGRRTAIGDSVK	GRAAGTFDS	n.d. / n.d. / n.d.	2 of 9 (3.63)
EFTLNSYGIS	NIYSDGRRTFVGDSVK	GRAAGTFDS	n.d. / n.d. / n.d.	2 of 9 (4.00)

Values reported by Engelhart et al. 2022, doi:10.1038/s41597-022-01779-4 (FLAb copy).